In the NIST ThermoML archive (doi:10.1021/je0342062):

Legend:
[1] = 101.33 kPa, Liquid, Vibrating tube method
[2] = xn = mol fraction of the nth substance listed; details: 308.15 K, 101.32 kPa, Liquid, Vibrating tube method
[3] = excess molar enthalpy (molar enthalpy of mixing); xn = mol fraction of the nth substance listed; details: 308.15 K, 101.32 kPa, Liquid

OCCOCCOCCOCCO [tetraethylene glycol]
[1]
Details	mass density [kg/m3]
298.15 K	1120.09
308.15 K	1112.31

OCCOCCOCCOCCO [tetraethylene glycol] + OCc1ccccc1
Details	excess molar enthalpy [kcal/mol]	mass density [kg/m3]
[2], x1 = 0.0793	–	1044.72
[2], x1 = 0.1126	–	1048.88
[2], x1 = 0.2056	–	1059.34
[2], x1 = 0.2511	–	1063.96
[2], x1 = 0.3592	–	1073.84
[2], x1 = 0.4688	–	1082.58
[2], x1 = 0.5786	–	1090.24
[2], x1 = 0.6885	–	1096.97
[2], x1 = 0.7489	–	1100.31
[2], x1 = 0.8169	–	1103.87
[2], x1 = 0.9226	–	1108.94
[2], x1 = 0.9433	–	1109.85
[3], x1 = 0.0244	-0.0377	–
[3], x1 = 0.0475	-0.0668	–
[3], x1 = 0.0697	-0.0875	–
[3], x1 = 0.0908	-0.105	–
[3], x1 = 0.1303	-0.127	–
[3], x1 = 0.1665	-0.141	–
[3], x1 = 0.2305	-0.153	–
[3], x1 = 0.2853	-0.163	–
[3], x1 = 0.3747	-0.169	–
[3], x1 = 0.4734	-0.175	–
[3], x1 = 0.5451	-0.174	–
[3], x1 = 0.6425	-0.161	–
[3], x1 = 0.7056	-0.146	–
[3], x1 = 0.7824	-0.114	–
[3], x1 = 0.8274	-0.0922	–
[3], x1 = 0.8778	-0.0619	–
[3], x1 = 0.9349	-0.029	–
